The target of one series is T1, EPHA3 (Homo sapiens, UniProt P29320).
T1 construct: purchased ProQinase
The series is described as follows: single-point (1 uM) inhibition assay (ProQinase Kinase Profiler). It is filed as biochemical. The settings on record: EPH-A3; read-out: Residual activity (%) at 1 uM.

By UniProt entry, the sequences of proteins in these tests, tags left out. Residues count along the entry.
UniProt P29320, 21-983: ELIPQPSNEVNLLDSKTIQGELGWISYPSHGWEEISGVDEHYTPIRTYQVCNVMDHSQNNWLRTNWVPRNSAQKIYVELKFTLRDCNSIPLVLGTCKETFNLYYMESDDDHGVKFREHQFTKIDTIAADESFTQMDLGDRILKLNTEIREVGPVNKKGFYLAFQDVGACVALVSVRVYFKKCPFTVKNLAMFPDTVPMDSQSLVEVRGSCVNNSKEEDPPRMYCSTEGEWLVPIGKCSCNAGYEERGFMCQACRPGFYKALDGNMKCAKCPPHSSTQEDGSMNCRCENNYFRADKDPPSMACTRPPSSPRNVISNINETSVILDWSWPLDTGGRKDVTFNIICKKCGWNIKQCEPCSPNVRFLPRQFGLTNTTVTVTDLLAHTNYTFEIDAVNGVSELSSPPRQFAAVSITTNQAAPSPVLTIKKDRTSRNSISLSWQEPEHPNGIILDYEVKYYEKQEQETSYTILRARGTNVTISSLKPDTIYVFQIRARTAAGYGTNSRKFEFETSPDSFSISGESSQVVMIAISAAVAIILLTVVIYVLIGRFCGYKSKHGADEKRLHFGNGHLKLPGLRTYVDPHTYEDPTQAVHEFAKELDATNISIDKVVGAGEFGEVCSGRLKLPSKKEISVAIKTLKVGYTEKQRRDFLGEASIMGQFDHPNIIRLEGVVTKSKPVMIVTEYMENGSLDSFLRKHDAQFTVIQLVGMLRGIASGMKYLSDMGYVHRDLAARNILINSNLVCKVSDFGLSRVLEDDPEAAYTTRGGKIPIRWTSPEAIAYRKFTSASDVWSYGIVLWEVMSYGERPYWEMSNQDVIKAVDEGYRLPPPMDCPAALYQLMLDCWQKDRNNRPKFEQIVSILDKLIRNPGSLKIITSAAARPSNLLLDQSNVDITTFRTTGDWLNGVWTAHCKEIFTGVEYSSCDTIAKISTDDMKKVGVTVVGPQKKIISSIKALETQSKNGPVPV
UniProt Q15375, 28-998: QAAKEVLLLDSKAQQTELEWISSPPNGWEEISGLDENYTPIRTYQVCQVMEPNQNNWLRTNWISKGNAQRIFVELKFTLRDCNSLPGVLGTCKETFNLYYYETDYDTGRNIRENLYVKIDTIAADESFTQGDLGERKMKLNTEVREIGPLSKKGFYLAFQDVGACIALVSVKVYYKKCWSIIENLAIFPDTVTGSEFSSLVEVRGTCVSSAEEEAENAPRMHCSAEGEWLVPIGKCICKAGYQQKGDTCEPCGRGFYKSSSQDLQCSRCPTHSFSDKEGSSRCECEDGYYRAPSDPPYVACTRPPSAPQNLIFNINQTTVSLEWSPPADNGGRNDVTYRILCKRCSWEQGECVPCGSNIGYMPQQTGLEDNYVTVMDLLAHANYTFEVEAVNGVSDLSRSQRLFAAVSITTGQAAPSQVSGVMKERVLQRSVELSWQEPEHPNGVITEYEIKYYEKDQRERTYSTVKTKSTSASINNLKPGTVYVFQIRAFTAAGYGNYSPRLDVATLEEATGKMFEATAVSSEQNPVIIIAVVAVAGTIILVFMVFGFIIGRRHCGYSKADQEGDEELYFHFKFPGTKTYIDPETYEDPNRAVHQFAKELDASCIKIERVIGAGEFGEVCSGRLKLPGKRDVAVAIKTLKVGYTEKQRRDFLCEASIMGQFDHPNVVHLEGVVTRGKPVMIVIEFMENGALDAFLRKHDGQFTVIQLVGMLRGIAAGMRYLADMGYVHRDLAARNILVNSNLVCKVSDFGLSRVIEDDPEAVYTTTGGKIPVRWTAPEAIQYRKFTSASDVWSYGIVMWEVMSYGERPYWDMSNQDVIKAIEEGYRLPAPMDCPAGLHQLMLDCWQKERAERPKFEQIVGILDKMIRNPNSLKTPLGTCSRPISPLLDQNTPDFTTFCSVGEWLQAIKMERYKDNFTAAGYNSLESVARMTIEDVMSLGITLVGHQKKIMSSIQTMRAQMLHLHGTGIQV
UniProt P54762, 18-984: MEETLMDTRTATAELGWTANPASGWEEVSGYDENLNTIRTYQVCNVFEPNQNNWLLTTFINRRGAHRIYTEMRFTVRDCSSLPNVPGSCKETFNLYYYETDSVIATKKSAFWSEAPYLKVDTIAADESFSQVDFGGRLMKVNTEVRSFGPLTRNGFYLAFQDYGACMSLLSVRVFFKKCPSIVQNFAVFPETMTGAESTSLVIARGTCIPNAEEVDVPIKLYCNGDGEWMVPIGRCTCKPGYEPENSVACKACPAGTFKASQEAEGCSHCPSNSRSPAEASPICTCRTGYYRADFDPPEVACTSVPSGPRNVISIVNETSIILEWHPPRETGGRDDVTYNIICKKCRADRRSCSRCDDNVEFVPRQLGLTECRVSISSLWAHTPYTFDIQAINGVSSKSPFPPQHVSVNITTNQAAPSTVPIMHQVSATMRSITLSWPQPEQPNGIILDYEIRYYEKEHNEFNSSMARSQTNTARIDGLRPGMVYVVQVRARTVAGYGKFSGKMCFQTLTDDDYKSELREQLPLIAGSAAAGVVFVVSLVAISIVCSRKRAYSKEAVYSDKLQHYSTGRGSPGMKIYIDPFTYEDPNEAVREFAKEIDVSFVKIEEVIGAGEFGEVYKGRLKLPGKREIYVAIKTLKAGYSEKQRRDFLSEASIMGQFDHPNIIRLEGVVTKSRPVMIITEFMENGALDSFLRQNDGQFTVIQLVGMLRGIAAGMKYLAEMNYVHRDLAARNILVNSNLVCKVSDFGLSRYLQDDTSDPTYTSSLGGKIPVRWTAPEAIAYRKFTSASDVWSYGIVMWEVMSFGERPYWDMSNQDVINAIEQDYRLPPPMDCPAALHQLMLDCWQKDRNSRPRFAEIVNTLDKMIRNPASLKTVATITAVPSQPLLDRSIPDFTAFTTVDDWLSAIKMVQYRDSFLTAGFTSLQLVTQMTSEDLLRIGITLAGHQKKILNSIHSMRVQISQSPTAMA

In the next series the target is EPH-A7 (Homo sapiens, UniProt Q15375). The description is as above. As to conditions: read-out: Residual activity (%) at 1 uM. It is filed as biochemical.
A further series addresses T2, EPHB1 (Homo sapiens, UniProt P54762).
T2 construct: purchased ProQinase
The description is as above. It is filed as biochemical. As to conditions: read-out: Residual activity (%) at 1 uM.

The test system of the next series is MDCK-MDR1 cells. The settings on record: dog.
In a further series the test system is MDCK-wild type cells. As to conditions: dog.

Molecules are shown by their SMILES.

On to `Cc1nc(Nc2ncc(C(=O)Nc3c(C)cccc3Cl)s2)cc(N2CCN(CCO)CC2)n1` [Compound A8, N-(2-chloro-6-methylphenyl)-2-((6-(4-(2-hydroxyethyl)piperazin-1-yl)-2-methylpyrimidin-4-yl)amino)thiazole-5-carboxamide, reference compound], for which the figures for the remaining activity at 1 µM on EPHA3, at EPH-A7 and on EPHB1 were 0%, 88% and 0%, respectively.
Consider `Cc1nc(Nc2ncc(C(=O)Nc3c(Cl)ccnc3C)s2)cc(N2CCN(CCO)CC2)n1` [Compound B3, N-(4-chloro-2-methylpyridin-3-yl)-2-((6-(4-(2-hydroxyethyl)piperazin-1-yl)-2-methylpyrimidin-4-yl)amino)thiazole-5-carboxamide], for which the “Mean recovery B > A” value in the series on MDCK-MDR1 cells came to 103%. For the same molecule, in the series on MDCK-wild type cells, the “Mean recovery A > B” value is reported as 103%.

Values taken from US12139480B2, “5-thiazolecarboxamide kinase inhibitor and uses thereof” (iOmx Therapeutics AG, priority 2018, dated 2024).
